Test results published in PubChem BioAssay AID651630 (Sanford-Burnham Center for Chemical Genomics, 2012).

Tests used:
DAPI = assay: triacylglycerol accumulation inhibitor potency, dose response, cell-based, panel, Nile Red and DAPI fluorescence, H9c2 (AID 651630); conditions: H9c2 cells, DAPI nuclear fluorescence (cytotoxicity counter-readout), oleic acid;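 note: cells exposed to compound overnight before fixation and staining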
TAG = assay: as above; conditions: H9c2 cells, Nile Red TAG fluorescence, oleic acid

| Compound | IC50 cytotoxicity (DAPI nuclear signal decrease) (DAPI; run 1) [nM] | IC50 cytotoxicity (DAPI nuclear signal decrease) (DAPI; run 2) [nM] | IC50 (TAG; mean of runs) [nM] | IC50 (TAG; run 1) [nM] | IC50 (TAG; run 2) [nM] |
| --- | --- | --- | --- | --- | --- |
| CC(=O)NC(SC(=S)N(CC(C)C)CC(C)C)C(Cl)(Cl)Cl (stereo not given) | 25000 | 25000 | 1580 | 2380 | 780 |
| CCC(C)N(CC(C)C)C(=S)SC(NC(C)=O)C(Cl)(Cl)Cl (stereo not given) | 25000 | 25000 | < 780 | 780 | 780 |
